# Measured affinities in a library of Ab-14 light chain variants

Target: peptide PDVDLGDISGINAS, taken from heptad repeat 2 (HR2) of SARS-CoV-2 spike.

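The parent was found by panning a naive human phage display library on the peptide. This is the validation round: designs drawn from the data on random variants, tested in the same kind of assay. Their group label is 14L_GP_HC (GP: Gaussian process model; HC: hill climbing; a sequence that several methods proposed may carry one label only). The assay is AlphaSeq: two haploid yeast populations carry antibody and antigen on their surface. The frequency of each diploid, read from paired DNA barcodes, reflects how well the two displayed proteins bind. A regression on co-assayed BCL2-family reference pairs converts the normalised counts of each replicate to an apparent Kd. Mating was done six times.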

Parent: Ab-14, a human scFv built as VH, the linker GGGGSGGGGSGGGGS, VL. Only the CDRs of the light chain vary.
VH: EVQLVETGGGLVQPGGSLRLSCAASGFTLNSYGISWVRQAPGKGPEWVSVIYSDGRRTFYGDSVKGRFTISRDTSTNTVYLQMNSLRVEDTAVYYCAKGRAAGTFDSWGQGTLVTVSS
VL: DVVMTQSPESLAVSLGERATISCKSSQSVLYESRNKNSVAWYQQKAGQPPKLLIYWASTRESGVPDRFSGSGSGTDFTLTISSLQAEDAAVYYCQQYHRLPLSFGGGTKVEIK

Variants are written as CDR1, CDR2 and CDR3 of the light chain (limits as in the source). Parent: KSSQSVLYESRNKNSVA, WASTRES, QQYHRLPLS. Scale: log10 of Kd in nM, estimated from mating counts; low values are strong binders. Replicates are averaged; those with no signal do not enter the mean. "ND" means that the variant was in the library but no mating with the target was seen in that replicate; the authors take this as a sign of poor binding, and no number exists. In the paper, a design with two or fewer of six values counts as a poor binder.

{"CDR-L1": "KESQSYLYESRNKNSVA", "CDR-L2": "GASTRES", "CDR-L3": "QQYHRLPLS", "log10 Kd (nM) by replicate": "0.14 0.19 -0.27 -0.05 0.03 -0.02", "mean, log10 nM": "0.00", "control signals": "0 of 18"}
{"CDR-L1": "KSSISYLYESENKCSVA", "CDR-L2": "EASQRES", "CDR-L3": "QQYHRLPLS", "log10 Kd (nM) by replicate": "0.37 -0.24 -0.16 -0.68 -0.42 0.35", "mean, log10 nM": "-0.13", "control signals": "0 of 18"}
{"CDR-L1": "KSLQSVDYESRNKNSVA", "CDR-L2": "HASTREQ", "CDR-L3": "QQYHFLPLS", "log10 Kd (nM) by replicate": "1.03 0.87 0.33 0.51 0.90 0.93", "mean, log10 nM": "0.76", "control signals": "0 of 18"}
{"CDR-L1": "KLEQSTNYESRNKNSVA", "CDR-L2": "NASTRES", "CDR-L3": "QQYHRLPLS", "log10 Kd (nM) by replicate": "0.27 0.31 0.24 0.18 0.14 0.68", "mean, log10 nM": "0.30", "control signals": "0 of 18"}
{"CDR-L1": "KQSQSDLPESRNKNSVA", "CDR-L2": "DASTRES", "CDR-L3": "QQYHRLPLS", "log10 Kd (nM) by replicate": "-0.19 -0.09 -0.28 -0.26 -0.33 -0.11", "mean, log10 nM": "-0.21", "control signals": "2 of 18 (2.95)"}
{"CDR-L1": "KVSLSYLLESRNKNSVA", "CDR-L2": "EASTRES", "CDR-L3": "QQYHRLPLS", "log10 Kd (nM) by replicate": "-0.24 -0.60 -0.20 -0.43 -0.24 -0.09", "mean, log10 nM": "-0.30", "control signals": "0 of 18"}
{"CDR-L1": "KSGQGVLYESRNKNSVA", "CDR-L2": "GASQRFS", "CDR-L3": "QQYHRLPLS", "log10 Kd (nM) by replicate": "-0.17 0.75 0.19 1.35 0.49 0.80", "mean, log10 nM": "0.57", "control signals": "0 of 18"}
{"CDR-L1": "KLDQSTLYESRNKNSVA", "CDR-L2": "QASTRES", "CDR-L3": "QQYHRLPLS", "log10 Kd (nM) by replicate": "0.08 -0.21 0.09 0.03 0.04 -0.04", "mean, log10 nM": "0.00", "control signals": "0 of 18"}
{"CDR-L1": "KSSKSVKFESRNKNSVA", "CDR-L2": "DASTRES", "CDR-L3": "QQYHRLPLS", "log10 Kd (nM) by replicate": "0.77 1.11 0.65 0.50 0.31 0.69", "mean, log10 nM": "0.67", "control signals": "0 of 18"}
{"CDR-L1": "KLQSSTLYESRQKNSVA", "CDR-L2": "WASTRES", "CDR-L3": "QQYHRLPLS", "log10 Kd (nM) by replicate": "1.92 1.68 2.57 2.45 ND 2.23", "mean, log10 nM": "2.17", "control signals": "0 of 18"}
{"CDR-L1": "KFSQSVLYESRDSNSVA", "CDR-L2": "NASTRES", "CDR-L3": "QQYHRLPLS", "log10 Kd (nM) by replicate": "0.19 0.18 0.30 0.07 -0.01 0.28", "mean, log10 nM": "0.17", "control signals": "0 of 18"}
{"CDR-L1": "KVSQSWLKESRNKNSVA", "CDR-L2": "EASTRLS", "CDR-L3": "QQYHRLPLS", "log10 Kd (nM) by replicate": "-0.30 -0.43 -0.59 -0.48 -0.38 -0.28", "mean, log10 nM": "-0.41", "control signals": "1 of 18 (3.49)"}
{"CDR-L1": "KSSISYLYESRNSNSVA", "CDR-L2": "EASTRES", "CDR-L3": "QQYHRLPLS", "log10 Kd (nM) by replicate": "0.26 0.07 0.32 -0.02 -0.20 0.23", "mean, log10 nM": "0.11", "control signals": "1 of 18 (1.93)"}
{"CDR-L1": "KLQQSVLYESRNKNNVA", "CDR-L2": "EASTRED", "CDR-L3": "QQYHRLPLS", "log10 Kd (nM) by replicate": "-0.35 -0.19 -0.26 -0.20 -0.33 0.03", "mean, log10 nM": "-0.22", "control signals": "1 of 18 (4.47)"}
{"CDR-L1": "KSSQSYLYESMNKNSVA", "CDR-L2": "EASTRES", "CDR-L3": "QQYHRLPLS", "log10 Kd (nM) by replicate": "0.08 0.27 0.00 0.04 -0.16 0.16", "mean, log10 nM": "0.07", "control signals": "1 of 18 (2.16)"}
{"CDR-L1": "KVSQSILYESVNKNSVA", "CDR-L2": "HASTRES", "CDR-L3": "QQYHRLPLS", "log10 Kd (nM) by replicate": "0.13 0.60 0.19 0.58 0.35 0.52", "mean, log10 nM": "0.40", "control signals": "2 of 18 (2.67)"}
{"CDR-L1": "KSSQSVWFESRNKNSVA", "CDR-L2": "DASTRES", "CDR-L3": "QQYHRLPLS", "log10 Kd (nM) by replicate": "-0.20 -0.55 -0.09 -0.47 -0.54 -0.68", "mean, log10 nM": "-0.42", "control signals": "0 of 18"}
{"CDR-L1": "KVSQSVLFESRMKNSVA", "CDR-L2": "DASTRCS", "CDR-L3": "QQYHRLPLS", "log10 Kd (nM) by replicate": "0.14 0.05 0.08 -0.15 -0.02 0.00", "mean, log10 nM": "0.02", "control signals": "2 of 18 (2.54)"}
{"CDR-L1": "HLMQSVLYESRNKNSVA", "CDR-L2": "HASLRED", "CDR-L3": "QQYHRLPLS", "log10 Kd (nM) by replicate": "0.29 0.24 -0.03 0.49 0.36 0.49", "mean, log10 nM": "0.31", "control signals": "0 of 18"}
{"CDR-L1": "KSPQSVLYESRNKNSVA", "CDR-L2": "EASTRED", "CDR-L3": "QSYHRLPLS", "log10 Kd (nM) by replicate": "0.19 0.28 0.01 0.12 0.26 0.15", "mean, log10 nM": "0.17", "control signals": "1 of 18 (1.93)"}
{"CDR-L1": "KWLQSVLYESRNKNSVA", "CDR-L2": "HASTRED", "CDR-L3": "QQYHQLPLS", "log10 Kd (nM) by replicate": "ND ND ND ND ND ND", "mean, log10 nM": "ND", "control signals": "0 of 18"}
{"CDR-L1": "KYYPSYLYESRNKNSVA", "CDR-L2": "QASTRES", "CDR-L3": "QQYQLLPLS", "log10 Kd (nM) by replicate": "0.08 0.11 0.11 -0.43 0.01 0.07", "mean, log10 nM": "0.00", "control signals": "1 of 18 (2.84)"}
{"CDR-L1": "KISQSVLYESRNKNSVA", "CDR-L2": "DASTRSS", "CDR-L3": "QQYHRLPLS", "log10 Kd (nM) by replicate": "-0.06 -0.21 -0.18 -0.30 -0.21 -0.06", "mean, log10 nM": "-0.17", "control signals": "2 of 18 (3.83)"}
{"CDR-L1": "KSSISNLEESRNKNSVA", "CDR-L2": "EASTRES", "CDR-L3": "QQYHRLPLS", "log10 Kd (nM) by replicate": "-0.08 0.00 -0.16 -0.11 -0.26 -0.03", "mean, log10 nM": "-0.11", "control signals": "2 of 18 (2.82)"}

Repeated from above, the 4 best binders with a signal in all replicates:

CDR-L1,CDR-L2,CDR-L3,log10 Kd (nM) by replicate,"mean, log10 nM",control signals
KSSQSVWFESRNKNSVA,DASTRES,QQYHRLPLS,-0.20 -0.55 -0.09 -0.47 -0.54 -0.68,-0.42,0 of 18
KVSQSWLKESRNKNSVA,EASTRLS,QQYHRLPLS,-0.30 -0.43 -0.59 -0.48 -0.38 -0.28,-0.41,1 of 18 (3.49)
KVSLSYLLESRNKNSVA,EASTRES,QQYHRLPLS,-0.24 -0.60 -0.20 -0.43 -0.24 -0.09,-0.30,0 of 18
KLQQSVLYESRNKNNVA,EASTRED,QQYHRLPLS,-0.35 -0.19 -0.26 -0.20 -0.33 0.03,-0.22,1 of 18 (4.47)

Of ten entries with the parent sequence, four were seen in most replicates (averages 0.34 to 2.37), three in one and three in none, so single entries are noisy. Values of this round are not directly comparable with the first-round values of the same sequences. Background: pairings of all light chain designs with three empty control strains gave a value in 4% of cases (median 2.64, 5th percentile 1.59). Values in that range, when seen in few replicates, are hard to tell from nonspecific mating. For each scFv, signals with the empty controls are counted beside the result, with their mean in brackets.

Data: MIT Lincoln Laboratory AlphaSeq set, Li et al. 2023, doi:10.1038/s41467-023-39022-2, as distributed in FLAb.